Amino acid sequences for entries named in this document (tags omitted).
UniProt P35462, whole entry: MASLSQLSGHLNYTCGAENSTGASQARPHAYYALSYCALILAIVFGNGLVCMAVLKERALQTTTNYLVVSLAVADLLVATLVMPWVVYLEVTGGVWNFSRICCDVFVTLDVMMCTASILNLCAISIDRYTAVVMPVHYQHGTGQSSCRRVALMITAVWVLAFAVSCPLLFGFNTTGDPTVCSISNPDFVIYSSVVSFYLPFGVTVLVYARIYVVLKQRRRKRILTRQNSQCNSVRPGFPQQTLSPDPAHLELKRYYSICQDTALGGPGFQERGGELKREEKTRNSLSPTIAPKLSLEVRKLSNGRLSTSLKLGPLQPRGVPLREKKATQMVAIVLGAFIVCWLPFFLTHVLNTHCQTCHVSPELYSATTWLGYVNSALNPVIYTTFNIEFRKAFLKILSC

In ChEMBL document CHEMBL1129096, “4-bromo-1-methoxy-N-[2-(4-aryl-1-piperazinyl)ethyl]-2-naphthalenecarboxamides: Selective dopamine D3 receptor partial agonists” (Bioorg Med Chem Lett, 1996):

Molecular target: D(3) dopamine receptor (Homo sapiens, UniProt P35462)
Experiment: Binding affinity at Dopamine D3 receptors in rat striatum by [3H]-spiperone displacement.
Type: tissue-based

COc1c(C(=O)NCCN2CCN(c3cccc(Cl)c3Cl)CC2)cc(Br)c2ccccc12
Ki: 8 nM
